The assay concerns the target T1, FITC-labeled p53TAD_(H. sapiens)^15–26 (human (Homo sapiens), UniProt P04637 15-26, FITC label (position not given)).
T1 construct: Probe of the fluorescence polarisation experiments; also called FITC‐labeled p53TAD_(Human); FITC-labeled human p53TAD^15–26 peptide; source: synthetic peptide
In words: fluorescence polarisation; saturation: FITC-labeled human p53TAD 15–26 constant at 6 or 10 nM, dilution series of MDM2; room temperature, 20 mM sodium phosphate pH 7.4, 150 mM NaCl, 1 mM TCEP. The settings on record: both partners purified. Background: Fluorescence polarisation rises when a labelled molecule tumbles more slowly, as on binding a larger partner.

B1: MDM2_(L. camtschaticum) SWIB domain (domain or fragment)
chain: GPMGSSSGVRKEDLVRPVPLLLRLLQSVGAKSDTFTVQQVIHHLGQYIKTKQLYDKQRQHIVHCKGDPLGEVFGVESFSLKEPSSSSGSVGALLAKALSIAATDKRKDHTGVGDGAVKES
In general, Kd refers to a measure of binding affinity in units of concentration. A higher Kd goes with weaker binding. In the case of B1, the Kd amounted to 2700 ± 300 nM.
